# Binding of CDR-mutated scFvs to a peptide of the spike HR2 region

From the AlphaSeq antibody data of Li et al. 2023 (doi:10.1038/s41467-023-39022-2), copy in the FLAb collection.

All variants were tested on one target, the spike HR2 peptide PDVDLGDISGINAS (SARS-CoV-2).

Ab-14 is the parent antibody, in scFv form: VH, then the linker GGGGSGGGGSGGGGS, then VL. The heavy chain is unchanged in all variants.
VH: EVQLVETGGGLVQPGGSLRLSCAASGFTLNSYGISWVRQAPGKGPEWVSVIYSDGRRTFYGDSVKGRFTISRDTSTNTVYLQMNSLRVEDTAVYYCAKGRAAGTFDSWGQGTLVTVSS
VL: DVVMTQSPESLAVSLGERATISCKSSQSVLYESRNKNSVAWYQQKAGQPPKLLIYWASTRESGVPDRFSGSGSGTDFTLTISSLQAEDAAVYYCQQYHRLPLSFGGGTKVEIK

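Phage display of a naive human antibody library on the peptide gave the parent. This is the validation round: designs drawn from the data on random variants, tested in the same kind of assay. Group labels follow the data file (Ctrl: baseline library sampled from a position-specific scoring matrix, with some repeated check sequences; Rand: our label for a block that the file lists under HC and that is probably the random mutants of the ten best first-round binders; GP: Gaussian process model; HC: hill climbing; Gen: genetic algorithm; Gibbs: Gibbs sampling; a sequence that several methods proposed may carry one label only). In AlphaSeq, yeast of one mating type display the scFv and yeast of the other type display the target. Pairs that bind mate more often; barcode pairs of the diploids are counted by sequencing. Each replicate has its own calibration line, from reference interactions of the BCL2 family. The assay was run in six technical replicates.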

Each variant is given by its three light chain CDRs, as the data file delimits them; those of the parent are KSSQSVLYESRNKNSVA, WASTRES, QQYHRLPLS.
Variants here have at most six changes.
Kd is apparent (estimated from mating counts) and averaged on the log scale over replicates with a signal. Smaller is tighter.
An entry "no signal" has no value in the source: the pair was not observed among the diploids in any replicate. This suggests poor binding but is not conclusive.

CDR-L1	CDR-L2	CDR-L3	group	Kd	replicates with signal
KSSISKLGESRNKNSVA	EASTRES	QQYHRLPLS	GP_HC	2.3 nM	6 of 6
KMYQSWLYESRNKNSVA	HASTREQ	QQYHRLPLS	GP_HC	2.2 nM	6 of 6
KSSQSILYESGNKNSVA	WASTREI	QQYHRLPLS	Ctrl	10 nM	6 of 6
KLPQSYLYESRNKNSVA	NASYRES	QQYHRLPLS	GP_Gen	360 pM	6 of 6
KLSQSVLYESRNKNSVA	DASTRES	QSYHRLPLS	GP_Gen	610 pM	6 of 6
KLSQSVWYESRMKNSVA	NASTRES	QQYHRLPLS	GP_Gen	1.5 nM	6 of 6
KSSQGWLYESRNKNSVA	GASTREN	QQYHRLPLS	GP_HC	840 pM	6 of 6
KSSQYVLYEMRNKNSVA	WASTRES	QQYHRLPLS	Ctrl	no signal	0 of 6
KQSQEKDYESRNKNSVA	DASTRES	QQYHRLPLS	GP_HC	890 pM	6 of 6
KHSQSVLYESRVKNSVA	DASMRES	QQYHRLPLS	GP_Gibbs	780 pM	6 of 6
KLQQSVLYESRNKNSVA	GASTRED	QQYHRLPLS	GP_Gen	1.0 nM	6 of 6
KSSQSVLQEWRNKNSVA	WASTREI	QQYCRLPLS	Ctrl	110 nM	6 of 6
KVMQSVLYESRNKNNVA	NASTREL	QQYHRLPLS	GP_Gibbs	750 pM	6 of 6
KSTQSVLYESRNKNSIA	SASTRES	QQYHRLPLS	Ctrl	4.1 nM	6 of 6
KSSQSWLYESREKNNVA	WASTRHS	QQYHRLPLS	Ctrl	8.5 nM	2 of 6
KFSQWVLYESRDKNSVA	NASTRES	QQYHRLPLS	GP_HC	1.6 nM	6 of 6
KLSQSMLYESRNKNSVA	NASKRES	QQYHRLPLS	GP_Gen	630 pM	6 of 6
KLQQSWLYESRNKNSVA	NASTRSS	QQYHRLPLS	GP_Gen	860 pM	6 of 6
KFSQSVLNESWNGNSVA	WASTRES	QQYHRLPLS	Ctrl	no signal	0 of 6
KSSQSVLTEGRNKNSVA	NASTRES	QQYHRLPLS	Ctrl	3.5 nM	6 of 6
KLSQSVLYESRNKNSVA	DASTRES	EQYHRLPSS	GP_HC	11 nM	6 of 6
KSQQSVLDEERNDNSVA	WASHRLS	QQYHRLPLS	GP_Gibbs	12 nM	6 of 6
KLPQSQLYESRNKNSVA	HASTRLS	QQYHRLPLS	GP_Gen	2.0 nM	6 of 6
KFPQSVGYQERNKNSVA	DASTRES	QQYHRLPLS	GP_Gibbs	470 pM	6 of 6
KSSQSVLYESRNANSVA	NASTRES	QQYHRLPLS	Ctrl	22 nM	2 of 6
KLSQSVLFEWRNKNSVA	DASTRES	QQYHRLPLS	GP_HC	540 pM	6 of 6
KLMQSTQYESRNQNSVA	WASTRES	QQYHRLPLS	GP_HC	17 nM	6 of 6
KMSQSFLYESRWKNSVA	GASQRES	QQYHRLPLS	GP_HC	2.8 nM	6 of 6
KLSQSVLYESRNKNNVA	EASQRES	QQYHRLPLS	GP_Gen	320 pM	6 of 6
KSSQSVLYESRNKNSVA	NASTRES	DQYHRLPLS	Ctrl	22 nM	6 of 6
KSSQSGLYESRNMNSVA	DASTRES	QQYHRLPLS	Ctrl	14 nM	4 of 6
KSSQSVLYESRNHNSVA	DASTREN	QQYHRLPLS	Ctrl	no signal	0 of 6
KVSQSVLPESRNKNSVA	DASTRES	QQYHRLPLS	GP_Gen	1.3 nM	6 of 6
KMSQSVLYESINKNHVA	EASTRCS	QQYHRLPLS	Ctrl	1.1 nM	6 of 6
KLSQSWLYESRNKNSVA	GASTRES	QQYHRLPLS	GP_Gen	480 pM	6 of 6
KSSFSWLYESRNKNSVA	AASTRES	YQYHRLPLS	Ctrl	22 nM	2 of 6
KVSQSVLYESRNKNSVA	NASTRET	QQYHRLPLS	GP_HC	460 pM	6 of 6
KLSQSVLYESRNKNSVA	NASTRES	QQYHRLPLW	GP_Gen	420 pM	6 of 6
KLSQSELYESRNKNSVA	NASTRMS	QQYHRLPLS	GP_Gen	2.5 nM	6 of 6
KSLQSVLYEQRNKNSVA	HASTRED	QQYHRLPLS	Rand	3.2 nM	6 of 6
FLSQSELYESRNKNSVA	NASTRES	QQYHRLPLS	GP_Gen	1.7 nM	6 of 6
KSSTSYDYESRNENSVA	EASTREQ	QQYHRLPLS	GP_HC	1.0 nM	6 of 6
KLSFSELYESRNKNSVA	EASTRES	QQYHRLPLS	GP_Gen	310 pM	6 of 6
KSQQHVSYESRNKNSVA	WASTRES	QQYHRLPLA	Ctrl	no signal	0 of 6
KSSQSVLYESDNNNSVA	QASCRES	QQYHRLPAS	Ctrl	750 nM	1 of 6
KLAQSWLYESRNKNSVA	NASQRES	QQYHRLPLS	GP_Gen	650 pM	6 of 6
KLQQSVLYESRNKNSVA	NASQRES	QQYHRLPLS	GP_Gen	820 pM	6 of 6
KVSQSVLGEQRNSNSVA	DISTRES	QQYHRLPLS	GP_HC	1.2 nM	6 of 6
KLEQSYLYESRNKNSVA	NASTRES	QQYHRLPLS	GP_Gen	520 pM	6 of 6
KSSPSVLSESTNKNSVA	WASTRES	QQYHRLPLS	Ctrl	63 nM	6 of 6
KFSQSVLYESRNKNSVA	RATTRES	QQYHRLPLS	Ctrl	1.4 nM	6 of 6
ALSQGWLYESRNKNSVA	GASTRED	QQYHRLPLS	GP_HC	370 pM	6 of 6
KASQSVLVESRNKQSVA	KASTRES	QQYLRLPLS	Ctrl	2.9 nM	6 of 6
KLSQSVAYESRTKNSVA	NASTRES	QQYHRLPLS	GP_HC	810 pM	6 of 6
HFSPSVLYESRNGNSVA	NASTRES	QQYHRLPLS	GP_HC	650 pM	6 of 6
KSGQSVLYESRNINSVA	WASTRES	QQYHRAPLS	Ctrl	no signal	0 of 6

Picked from the list: the 5 lowest averages where every replicate gave a value.

{"CDR-L1": "KLSFSELYESRNKNSVA", "CDR-L2": "EASTRES", "CDR-L3": "QQYHRLPLS", "group": "GP_Gen", "Kd": "310 pM", "replicates with signal": "6 of 6"}
{"CDR-L1": "KLSQSVLYESRNKNNVA", "CDR-L2": "EASQRES", "CDR-L3": "QQYHRLPLS", "group": "GP_Gen", "Kd": "320 pM", "replicates with signal": "6 of 6"}
{"CDR-L1": "KLPQSYLYESRNKNSVA", "CDR-L2": "NASYRES", "CDR-L3": "QQYHRLPLS", "group": "GP_Gen", "Kd": "360 pM", "replicates with signal": "6 of 6"}
{"CDR-L1": "ALSQGWLYESRNKNSVA", "CDR-L2": "GASTRED", "CDR-L3": "QQYHRLPLS", "group": "GP_HC", "Kd": "370 pM", "replicates with signal": "6 of 6"}
{"CDR-L1": "KLSQSVLYESRNKNSVA", "CDR-L2": "NASTRES", "CDR-L3": "QQYHRLPLW", "group": "GP_Gen", "Kd": "420 pM", "replicates with signal": "6 of 6"}

The authors averaged sequences with at least three values out of six and counted those with two or fewer as poor binders.
As a blank, each scFv also met three strains without target: over all light chain designs, 4% of these pairings were detected, typically at 430 nM and seldom below 38 nM.
Values of this round are not directly comparable with the first-round values of the same sequences.